Target: wild type biotinylated TTR (Homo sapiens (Human), UniProt P02766)
Assay: Surface plasmon resonance (SPR) assay for TTR-ligand interaction
Settings: 25° C., one-to-one model; read-out: Kd (SPR, binding kinetics)
Procedure: To an ice-cold solution of TTR (20 μM) in PBS was added EZ-Link Sulfo-NHS-LC-Biotin at a ratio of ˜2:1 (biotin:TTR) (minimal biotinylation) and the solution was incubated at room temperature. After 1 hour, un-reacted biotin was removed by passing the sample over a fast (FPLC) desalting column (Superdex™ 75) equilibrated with PBS.
SPR measurements were performed at 25° C. using a Biacore T100 (GE Healthcare) instrument equilibrated in 1% DMSO in PBS as a running buffer. After pretreatment of the streptavidin-coated chip (Sensor Chop SA, Biacore), ˜4000 RU biotinylated TTR was immobilized on one channel leaving the second flow channel as a blank (streptavidin alone) control. For binding measurements, HTS hits were diluted in running buffer (1% DMSO/PBS) and different dilution series were flowed over the chip at 50 μL/min ([…], 600 s wash). A zero concentration sample was used as a negative control. The kinetic data was fitted to a one-to-one binding model using Biacore T100 evaluation software.

**Q.** How did the Kd turn out when `O=C(c1cc(O)c(O)c([N+](=O)[O-])c1)c1ccccc1F` [Ro 41-0960, reference compound] was run?
**A.** The Kd was 56 ± 4.14 nM.

— patent US8877795B2, “Identification of stabilizers of multimeric proteins” (The Board of Trustees of the Leland Stanford Junior …, priority 2010, dated 2014)
